# AlphaSeq binding of Ab-14 light chain variants to a spike HR2 peptide

Binding partner: SARS-CoV-2 spike HR2 peptide, sequence PDVDLGDISGINAS.

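Library AAYL50 holds single substitutions and randomly drawn double and triple substitutions in the CDRs. In AlphaSeq, yeast of one mating type display the scFv and yeast of the other type display the target. Mating (16 h, 30 °C) was followed by selection of diploids and sequencing of their barcodes. The ratio of observed to expected reads was calibrated, replicate by replicate, on BCL2-family standards whose Kd was known from biolayer interferometry. There are three technical replicates.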

Each scFv is VH, the linker GGGGSGGGGSGGGGS, VL, as in the parent Ab-14, and differs from it in the CDRs of the light chain only.
VH: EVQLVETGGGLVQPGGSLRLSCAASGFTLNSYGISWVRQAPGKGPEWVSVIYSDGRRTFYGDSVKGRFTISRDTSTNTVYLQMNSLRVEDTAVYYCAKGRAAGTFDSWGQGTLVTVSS
VL: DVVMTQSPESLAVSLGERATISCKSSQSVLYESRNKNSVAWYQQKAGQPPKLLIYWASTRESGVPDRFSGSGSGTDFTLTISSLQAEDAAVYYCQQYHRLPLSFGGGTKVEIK

Changes read parent residue, position, new residue, counted from the first residue of the VL shown. The Kd shown is the geometric mean over detected replicates; a lower Kd is a better binder. "nd" means that the variant was in the library but no mating with the target was seen in any replicate; the authors take this as a sign of poor binding, and no number exists. Entries are sorted by rising average, undetected variants last. As a blank, each scFv also met three strains without target: over library AAYL50, 18% of these pairings were detected, typically at 15 µM and seldom below 970 nM.

With S25W/W56K the result was 1.9 nM (3 of 3 replicates).
With Q27L/W56A/R60Q the result was 5.6 nM (3 of 3 replicates).
With K36P/T59I/L100T the result was 7.1 nM (3 of 3 replicates).
With S26I/L30P/W56T the result was 9.1 nM (3 of 3 replicates).
With S26I/V29H/Y31V the result was 11 nM (3 of 3 replicates).
With Q27K/V29L/R34N the result was 18 nM (3 of 3 replicates).
With S33E/N35M/H98P the result was 20 nM (3 of 3 replicates).
With N35V/Q96V/Y97G the result was 22 nM (3 of 3 replicates).
With K24N/S28G/W56Y the result was 38 nM (3 of 3 replicates).
With K24W/S58E/Q96E the result was 56 nM (3 of 3 replicates).
With R34C/K36Y/H98M the result was 65 nM (3 of 3 replicates).
With R34M/S38C/S103C the result was 76 nM (3 of 3 replicates).
With S33Q/H98P the result was 140 nM (3 of 3 replicates).
With S33L/S58G/L100C the result was 190 nM (3 of 3 replicates).
With E61G/Q96C/Y97D the result was 370 nM (3 of 3 replicates).
With S28P/E32I/A57S the result was 380 nM (1 of 3 replicates).
With N35C/S62I/Q96C the result was 650 nM (3 of 3 replicates).
With R34M/T59K/L102H the result was 4.1 µM (1 of 3 replicates).
With N35P/N37C/T59Y the result was 5.4 µM (1 of 3 replicates).
With S25Y/R60A/E61P the result was 7.2 µM (3 of 3 replicates).
With R34Y/A57N/Y97P the result was 12 µM (1 of 3 replicates).
With E61L/L102R the result was 16 µM (2 of 3 replicates).
With E32C/S58E/L100C the result was nd (0 of 3 replicates).
With Q96A/Y97V the result was nd (0 of 3 replicates).
With S33Q/N37Y/S58Q the result was nd (0 of 3 replicates).
With S33H/N37G/W56T the result was nd (0 of 3 replicates).
With S25C/Y31S/N35S the result was nd (0 of 3 replicates).
With N35D/W56V/P101M the result was nd (0 of 3 replicates).
With L100C/P101N/L102E the result was nd (0 of 3 replicates).
With S25T/N35Y/T59K the result was nd (0 of 3 replicates).

Repeated from above, the 2 best binders with a signal in all replicates:

| changes | Kd (apparent) | seen in |
|---|---|---|
| S25W/W56K | 1.9 nM | 3/3 |
| Q27L/W56A/R60Q | 5.6 nM | 3/3 |

Data: MIT Lincoln Laboratory AlphaSeq set, Engelhart et al. 2022, doi:10.1038/s41597-022-01779-4, as distributed in FLAb.